The series in a line: Plasma pharmacokinetics of 14C-LLNL-02 after single intravenous dose (AMS). Conditions: male guinea pigs.
The mark [1] stands for this setting: single intravenous 5 mg/kg, 5 mg/kg.
[2] abbreviates: single intravenous 20 mg/kg, 20 mg/kg.

Consider `C[C@@H](CN1CCCc2ccccc2C1)NC(=O)/C=N/O` [LLNL-02], for which, under “single intravenous 1 mg/kg”, the AUC0-t worked out at 3880 ng·h/mL, the “AUC∞” value was found to be 7200 ng·h/mL, the “Cl (area)” value is 2.7962 mL/min/kg and the T½ elim. is 21.92 h. For the same molecule, the “Vd (area)” value (single intravenous 1 mg/kg) was 4.40228 L/kg. The “AUC∞” value (single intravenous 5 mg/kg) is 31500 ng·h/mL. Under setting [1], the AUC0-t turned out to be 20500 ng·h/mL, the “Cl (area)” value turned out to be 2.977 mL/min/kg and the T½ elim. came to 17.3 h. Under setting [2], the AUC0-t was 51700 ng·h/mL, the “AUC∞” value was 87800 ng·h/mL, the “Cl (area)” value turned out to be 5.185 mL/min/kg and the T½ elim. worked out at 18.9 h. Further, the “Vd (area)” value under setting [2] stood at 5.3419 L/kg.

The record behind these values is US11186548B2 (priority 2017, dated 2021).
